Assay results: US20090131702A1, “METHOD FOR THE PRODUCTION OF METAL CARBOXYLATES AND THE METAL AMINOATE OR METAL HYDROXY ANALOGUE METHIONATE DERIVATIVES THEREOF, AND USE OF SAME AS GROWTH PROMOTERS IN ANIMAL FEED” (NOREL, S.A., priority 2003, published 2009)
Where two headings read alike, the source gives them in different places.

Key:
[1] = Zinc concentration in the liver of piglets (Example 11); format: in vivo
Source text: At the end of the experiment, one male and one female were selected at random from each batch to take a specimen of liver tissue and determine the zinc content.

[2] = Test in broilers: production parameters, zinc methioninate / formate / complex (Example 12); format: in vivo, broilers of the Ross strain; conditions: 50 ppm of zinc added to base diet
Source text: Four experimental treatments were used, comprising the same basic diet supplemented with different sources of zinc:
Control of production parameters was effected at 21 and 42 days of age, recording the live weight and the consumption of feed per batch.

[3] = Test of efficacy in piglets: production parameters, zinc glycinate / formate / complex (Example 14); format: in vivo; conditions: 21-50 days, 130 ppm of zinc added to base diet
Source text: The experimental period was 29 days.

[4] = piglets, 220 ppm of zinc added to base diet
[5] = broilers, 0-21 days; 150 ppm of zinc added to base diet
[6] = piglets, 21-41 days; 150 ppm of zinc added to base diet

## O=C[O-].O=C[O-].[Zn+2] [zinc formate, Zinc formate]
[1]; 220 ppm of zinc
  ratio of zinc in the liver to zinc in the diet (in words): highest ratio
[1]; end of 21-day experiment, 220 ppm of zinc added to base diet
  Ratio Zn in liver/Zn in diet: 25.5c
[2]; 0-21 days
  IC (index of conversion): 1.37 b
[2]; 0-42 days
  IC (index of conversion): 1.82 b
[2]; 21-42 days
  IC (index of conversion): 2.03 b
[3]
  IC (index of conversion): 1.75 b
[4]; 21-28 days
  IC (index of conversion): 1.16 b
[4]; 21-42 days
  IC (index of conversion): 1.47 b
[5]
  IC (index of conversion): 1.26 b
[6]
  IC (index of conversion): 1.63 b
